One substance from patent publication US7504035B2, “Treatment of putrescrible cakes” (United Utilities PLC, priority 2005, dated 2009) can be followed below.

Data set [1] deals with E. coli. The data set is described as follows: E. coli reduction in milled sewage screenings (54.1% solids). Conditions: 3% ammonium nitrate w/w, kept in skip 1 week.
Data set [2] concerns E. coli. The data set is described as follows: E. coli content of raw sewage sludge cake (24.81% solids) treated with ammonium nitrate. To be noted: 1.5% ammonium nitrate w/w.
Data set [3] can be described thus: pH of treated cake. To be noted: raw sludge cake, 1.5% ammonium nitrate w/w.

This is a selection: effects in other tests are not listed, and their absence says nothing.

For ammonium nitrate, the “E. coli content reduced by a factor” value in data set [1] was 275. In addition, the E. coli content in data set [2] (day 0) turned out to be 1.41E+06 cfu/g dry weight; in data set [2] (day 1), 3.21E+05 cfu/g dry weight; in data set [2] (day 8) it was 6.77E+03 cfu/g dry weight; in data set [2] (day 22) it was 5.12E+03 cfu/g dry weight. The PH was determined as 5.9 in data set [3] (day 0), 6.1 in data set [3] (day 1), 6.2 in data set [3] (day 8) and 6.9 in data set [3] (day 22).
